Test results reported in US20250320302A1 (EVOTEC INTERNATIONAL, published 2025).

Chains of the proteins cited; added tags and fusions are not shown. Residues count along the entry.
UniProt P25942, 21-277: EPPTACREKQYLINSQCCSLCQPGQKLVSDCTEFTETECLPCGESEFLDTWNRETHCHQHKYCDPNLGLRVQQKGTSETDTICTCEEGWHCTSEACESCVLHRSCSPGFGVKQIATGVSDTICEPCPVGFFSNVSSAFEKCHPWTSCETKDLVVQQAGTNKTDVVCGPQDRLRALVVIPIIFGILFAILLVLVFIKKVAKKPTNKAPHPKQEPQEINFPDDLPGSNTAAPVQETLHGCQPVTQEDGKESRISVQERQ

How the values were obtained:
human CD40 = human CD40 (human, UniProt P25942); assay: cell-based or functional assay
[1] = biological target: T1, human type I IFN receptor on HEK-Blue IFN-α/β cells (human, UniProt P17181 28-557; P48551 27-515); assay: cell-based or functional assay
T1 sequence (looked up) 1: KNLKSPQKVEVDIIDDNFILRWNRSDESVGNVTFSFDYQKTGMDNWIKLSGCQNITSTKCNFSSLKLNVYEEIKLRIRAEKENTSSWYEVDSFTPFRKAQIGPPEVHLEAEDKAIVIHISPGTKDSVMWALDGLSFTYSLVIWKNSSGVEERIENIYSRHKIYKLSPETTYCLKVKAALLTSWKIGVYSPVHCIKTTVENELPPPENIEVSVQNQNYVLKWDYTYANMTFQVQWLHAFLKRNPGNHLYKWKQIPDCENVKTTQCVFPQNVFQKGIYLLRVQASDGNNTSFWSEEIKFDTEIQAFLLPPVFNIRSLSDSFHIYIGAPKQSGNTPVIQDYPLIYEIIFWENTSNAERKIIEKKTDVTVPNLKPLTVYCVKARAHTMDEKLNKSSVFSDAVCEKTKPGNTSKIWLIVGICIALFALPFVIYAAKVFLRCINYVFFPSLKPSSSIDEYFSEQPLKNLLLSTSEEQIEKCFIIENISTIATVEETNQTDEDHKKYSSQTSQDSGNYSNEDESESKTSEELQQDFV
T1 sequence (looked up) 2: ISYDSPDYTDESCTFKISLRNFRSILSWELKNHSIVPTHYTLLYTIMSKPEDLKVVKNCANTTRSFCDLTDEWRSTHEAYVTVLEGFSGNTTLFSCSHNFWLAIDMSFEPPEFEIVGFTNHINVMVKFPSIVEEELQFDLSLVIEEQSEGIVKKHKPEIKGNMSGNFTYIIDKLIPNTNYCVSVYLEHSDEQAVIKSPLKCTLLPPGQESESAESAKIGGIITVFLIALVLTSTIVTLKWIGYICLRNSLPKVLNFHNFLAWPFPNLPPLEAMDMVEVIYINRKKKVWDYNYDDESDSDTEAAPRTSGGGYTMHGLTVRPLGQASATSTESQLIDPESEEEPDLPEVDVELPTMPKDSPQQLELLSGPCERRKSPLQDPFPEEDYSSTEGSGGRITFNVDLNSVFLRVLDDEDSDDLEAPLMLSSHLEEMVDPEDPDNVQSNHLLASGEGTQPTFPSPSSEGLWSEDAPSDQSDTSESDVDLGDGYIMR

CD40 EC50 (HEK-Blue CD40L NFκB-SEAP reporter cells) (human CD40): 0.0863 µg/mL
IFNω EC50 (HEK-Blue IFN-α/β SEAP reporter cells) [1]: 0.000493 µg/mL
B1: IFA46 (antibody, human IgG2, kappa)
light: DIQMTQSPSSVSASVGDRVTITCRASQGIYSWLAWYQQKPGKAPNLLIYTASTLQSGVPSRFSGSGSGTDFTLTISSLQPEDFATYYCQQANIFPLTFGGGTKVEIKRTVAAPSVFIFPPSDEQLKSGTASVVCLLNNFYPREAKVQWKVDNALQSGNSQESVTEQDSKDSTYSLSSTLTLSKADYEKHKVYACEVTHQGLSSPVTKSFNRGECGGGGSGGGGSGGGGSGGGGS[letters of about 150 residues left out]
heavy: QVQLVQSGAEVKKPGASVKVSCKASGYTFTGYYMHWVRQAPGQGLEWMGWINPDSGGTNYAQKFQGRVTMTRDTSISTAYMELNRLRSDDTAVYYCARDQPLGYCTNGVCSYFDYWGQGTLVTVSSASTKGPSVFPLAPCSRSTSESTAALGCLVKDYFPEPVTVSWNSGALTSGVHTFPAVLQSSGLYSLSSVVTVPSSNFGTQTYTCNVDHKPSNTKVDKTVERKCCVECPPCPAPPVAGPSVFLFPPKPKDTLMISRTPEVTCVVVDVSHEDPEVQFNWYVDGVEVHNAKTKPREEQFNSTFRVVSVLTVVHQDWLNGKEYKCKVSNKGLPAPIEKTISKTKGQPREPQVYTLPPSREEMTKNQVSLTCLVKGFYPSDIAVEWESNGQPENNYKTTPPMLDSDGSFFLYSKLTVDKSRWQQGNVFSCSVMHEALHNHYTQKSLSLSPGK
